## OPERA 2.9 data: vapor pressure values

From the experimental data distributed with OPERA 2.9.

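OPERA's authors assembled the values from existing databases and did not measure them anew. A listed value is a point estimate from one report or more. Conditions of the individual experiments are not part of the data. A value may pool stereoisomers or salt forms, and the file does not say which form was measured. Unmarked limits or estimates from the upstream databases cannot be ruled out.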

Vapor pressures (log10 mmHg) refer to near room temperature, 15 to 30 °C; higher is more volatile.

structure (SMILES)	log VP (log10 mmHg)
COc1cccc(C(C)=O)c1	-1.477
COc1ccccc1C(=O)NS(=O)(=O)c1ccc(C(=O)Cl)cc1.COc1ccccc1C(=O)NS(=O)(=O)c1ccc(C(=O)Cl)cc1	-9.546
CCOc1ccccc1NC(=O)C(=O)Nc1ccccc1CC	-8.381
Cc1ccc(S(=O)(=O)C(I)I)cc1	-6.018
CCOc1ccc(B(O)O)c(F)c1F	-5.094
CCCCC(CC)COC(=O)CS (configuration not stated)	-1.657
O=C(Oc1ccccc1)n1c(C(F)(F)F)nc2cc(Cl)c(Cl)cc21	-4.284
O=C(c1ccc2c(c1)C(=O)OC2=O)c1ccc2c(c1)C(=O)OC2=O	-12.31
CC(=O)OCC(=O)[C@]1(O)[C@@H](O)C[C@@H]2[C@H]3CCC4=CC(=O)C=C[C@@]4(C)[C@@H]3[C@H](OC(C)=O)C[C@]21C	-9.639
CC(=O)C1(C)CC2=C(CCCC2(C)C)CC1C (configuration not stated)	-2.788
CC(C)c1ccc(C#N)cc1	-1.046
CC1=CCC(C(C)C)CC1 (configuration not stated)	0.021
CCC(=O)OCC(=O)OC(C)C1CCCC(C)(C)C1 (configuration not stated)	-3.401
O=C(O)C(F)(F)C(F)(F)C(F)(F)C(F)(F)F	1.31
NCC(O)CO (configuration not stated)	-3.011
CCC[C@H]1CCO[C@@H](C)S1	-0.284
CNC(=S)NN	-6.286
COCC(F)(F)C(F)F	2.022
NS(=O)(=O)c1cc(C(=O)O)ccc1Cl	-4.502
CCCn1c(=O)c(C)cn2nc(N)nc12	-4.523
CN(C)CCN(C)CCN(C)C	-0.694
COCCC(=O)OC	0.971
CC1C/C=C/CCCCCCCCC(=O)C1 (stereo partly drawn)	-2.171
O=C(O)COc1ccc2ccccc2c1	-7.664
CCCCCCCCCCCC(=O)OCC(C)(C)C=Nc1ccc(N=CC(C)(C)COC(=O)CCCCCCCCCCC)cc1	-4.458
CCCCN(CCCC)C(=O)N(CCCC)CCCC	-3.846
CC1CCOC(c2ccccc2)C1 (configuration not stated)	-1.588
CCOC(=O)C1(OC(=O)Cc2c(C)cc(C)cc2C)CCCC1	-5.496
COc1ccc([N+](=O)[O-])cc1OCCCN1CCN(C)CC1	-9.824
C[C@H](N[C@@H]1CCc2[nH]c3ccccc3c2C1)c1ccccc1.Cl	-9.034
CC(=O)O[BH-](OC(C)=O)OC(C)=O.[Na+]	-4.369
O=C1CCCCCCCCCCOCCCCO1	-3.476
OC[C@H](O)[C@@H]1OC(c2ccc(Cl)cc2)O[C@@H]2COC(c3ccc(Cl)cc3)O[C@H]12 (some centres undefined)	-7.411
CC1=CCC(CCC(C)CO)C1(C)C (configuration not stated)	-1.974
OCCOCCCl	-0.77
CCOC(=O)C(C#N)=C(c1ccccc1)c1ccccc1	-5.767
CCCC[N+](C)(CCCC)CCCC.[Cl-]	-4.614
CCCCCCCCCCCCCCCC=CCC(CC(=O)O)C(=O)O (configuration not stated)	-4.952
CC(C)C(=O)OCC(C)(C)C(OC(=O)C(C)C)C(C)C (configuration not stated)	-2.01
O=C(O)C(F)(F)C(F)OC(F)(F)C(F)(F)C(F)(F)OC(F)(F)F (configuration not stated)	-0.62
COC(=O)C=C1CCCC1	-0.465
CC(O)(c1ccc(Cl)cc1)c1ccc(Cl)cc1	-6.269
CC=C(C)Br	1.755
CCCCCCCCCCCCCCCCCCCCCC(=O)[O-].[Ag+]	-7.663
CC(C)C1=CC2=CC[C@@H]3[C@](C)(CCC[C@@]3(C)C(=O)O)[C@H]2CC1	-6.496
CCCCCCCC[Si](OC)(OC)OC	-1.803
O=C(OC[C@@H]1CO[C@](CBr)(c2ccc(Cl)cc2Cl)O1)c1ccccc1	-8.78
C=CCCCCCCCCCCCCCCCCCCCCCCCC	-5.666
CC1(C)[C@H]2CC[C@]3(C2)[C@H]1C(=O)CCC3(C)C (relative stereo)	-2.14
Cc1nc2c(O)cccn2c(=O)c1CCCl.Cl	-5.732
Clc1cc(Cl)c(-c2c(Cl)cc(Cl)c(Cl)c2Cl)c(Cl)c1	-4.907
CC(C)N(C)C	2.176
C=CCOC(=O)C(C)(C)OC(=O)c1cc([N+](=O)[O-])ccc1Cl	-6.107

Excerpt, the opening 7 entries:

{"smiles": "COc1cccc(C(C)=O)c1", "log VP (log10 mmHg)": "-1.477"}
{"smiles": "COc1ccccc1C(=O)NS(=O)(=O)c1ccc(C(=O)Cl)cc1.COc1ccccc1C(=O)NS(=O)(=O)c1ccc(C(=O)Cl)cc1", "log VP (log10 mmHg)": "-9.546"}
{"smiles": "CCOc1ccccc1NC(=O)C(=O)Nc1ccccc1CC", "log VP (log10 mmHg)": "-8.381"}
{"smiles": "Cc1ccc(S(=O)(=O)C(I)I)cc1", "log VP (log10 mmHg)": "-6.018"}
{"smiles": "CCOc1ccc(B(O)O)c(F)c1F", "log VP (log10 mmHg)": "-5.094"}
{"smiles": "CCCCC(CC)COC(=O)CS", "stereo": "configuration not stated", "log VP (log10 mmHg)": "-1.657"}
{"smiles": "O=C(Oc1ccccc1)n1c(C(F)(F)F)nc2cc(Cl)c(Cl)cc21", "log VP (log10 mmHg)": "-4.284"}